## Permeability data for macrocyclic peptides

Source: CycPeptMPDB (Li et al. 2023), which took these values from Townsend et al. 2020, doi:10.26434/chemrxiv.13335941.v1.

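Lipid, pH, incubation time, direction and concentration are not recorded in the data file. The list need not hold all peptides of the study. Peptides that the database sets to -10, its floor, are left out.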

PAMPA measures passive passage through an artificial lipid membrane.
Permeability is in 10^-6 cm/s, converted from the database's log10 values; higher is more permeable.

structure (SMILES)	PAMPA (10^-6 cm/s)
CC(C)C[C@@H]1NC(=O)[C@@H]2CCCN2C(=O)CN(Cc2ccccc2)C(=O)[C@H](CC(C)C)NC(=O)[C@H](C)N(C)C(=O)[C@H](Cc2ccccc2)NC1=O	4.4
CC(C)C[C@@H]1NC(=O)[C@H](CC(C)C)N(C)C(=O)[C@H](C)NC(=O)[C@H](Cc2ccccc2)NC(=O)[C@H](CC(C)C)N(C)C(=O)[C@@H]2CCCN2C1=O	5.2
CC(C)C[C@@H]1C(=O)N[C@@H](Cc2ccccc2)C(=O)N2CCC[C@@H]2C(=O)N(C)[C@H](C)C(=O)N(C)[C@@H](CC(C)C)C(=O)N[C@H](CC(C)C)C(=O)N2CCC[C@@H]2C(=O)N1C	1.1
CC(C)C[C@@H]1C(=O)N[C@@H](Cc2ccccc2)C(=O)N2CCC[C@@H]2C(=O)N(C)[C@H](C)C(=O)N[C@H](CC(C)C)C(=O)N[C@@H](Cc2ccccc2)CC(=O)N2CCC[C@H]2C(=O)N1C	1.6
CCCN1CC(=O)N[C@@H](CC(C)C)C(=O)N(C)[C@@H](CC(C)C)C(=O)N2CCC[C@@H]2C(=O)N[C@@H](CC(C)C)C(=O)N[C@@H](Cc2ccccc2)C1=O	6.2
CC(C)C[C@@H]1C(=O)N(C)[C@H](CC(C)C)C(=O)N2CCC[C@H]2C(=O)N(C)[C@@H](CC(C)C)C(=O)N[C@@H](Cc2ccccc2)C(=O)N2CCC[C@H]2C(=O)N(C)[C@H](C)C(=O)N1C	10
CC(C)C[C@H]1NC(=O)[C@@H](C)N(C)C(=O)[C@@H]2CCCN2C(=O)[C@H](Cc2ccccc2)NC(=O)CN(Cc2ccccc2)C(=O)[C@H]2CCCN2C(=O)[C@@H](CC(C)C)NC1=O	2.2
CC(C)C[C@@H]1C(=O)N[C@@H](Cc2ccccc2)C(=O)N2CCC[C@@H]2C(=O)N(C)[C@@H](C)C(=O)N(Cc2ccccc2)CC(=O)N[C@@H](Cc2ccccc2)CC(=O)N2CCC[C@H]2C(=O)N1C	1.9
CC(C)C[C@@H]1NC(=O)[C@@H](CC(C)C)N(C)C(=O)[C@H](C)N(C)C(=O)[C@H](Cc2ccccc2)NC(=O)CN(Cc2ccccc2)C(=O)[C@H]2CCCN2C1=O	6.5
CC(C)C[C@@H]1NC(=O)[C@H]2CCCN2C(=O)[C@H](CC(C)C)N(C)C(=O)[C@H](CC(C)C)NC(=O)[C@@H](C)N(C)C(=O)[C@H]2CCCN2C(=O)[C@H](Cc2ccccc2)NC1=O	1.1
CC(C)C[C@@H]1NC(=O)C[C@H](Cc2ccccc2)NC(=O)[C@@H]2CCCN2C(=O)[C@H](Cc2ccccc2)NC(=O)[C@H](CC(C)C)N(C)C(=O)[C@H]2CCCN2C(=O)[C@@H](CC(C)C)NC1=O	4.1
CCCN1CC(=O)N(C)[C@@H](CC(C)C)C(=O)N[C@@H](CC(C)C)C(=O)N2CCC[C@H]2C(=O)N[C@H](CC(C)C)C(=O)N[C@@H](Cc2ccccc2)C1=O	12
CC(C)C[C@@H]1NC(=O)[C@@H](C)NC(=O)[C@@H]2CCCN2C(=O)[C@H](Cc2ccccc2)NC(=O)[C@H](CC(C)C)N(C)C(=O)[C@H]2CCCN2C(=O)CN(Cc2ccccc2)C1=O	1.6
CC(C)C[C@@H]1NC(=O)[C@@H]2CCCN2C(=O)C[C@H](Cc2ccccc2)NC(=O)CN(Cc2ccccc2)C(=O)C[C@H](Cc2ccccc2)NC(=O)[C@@H]2CCCN2C(=O)[C@H](Cc2ccccc2)NC1=O	0.63
CC(C)C[C@@H]1C(=O)N[C@@H](Cc2ccccc2)C(=O)N2CCC[C@@H]2C(=O)N(C)[C@H](C)C(=O)N(Cc2ccccc2)CC(=O)N[C@@H](Cc2ccccc2)CC(=O)N2CCC[C@@H]2C(=O)N1C	1.9
CCCN1CC(=O)N[C@@H](CC(C)C)C(=O)N(Cc2ccccc2)CC(=O)N2CCC[C@H]2C(=O)N(C)[C@H](CC(C)C)C(=O)N[C@@H](Cc2ccccc2)C1=O	15
CC(C)C[C@H]1C(=O)N(C)[C@@H](CC(C)C)C(=O)N2CCC[C@H]2C(=O)N(C)[C@@H](CC(C)C)C(=O)N[C@@H](Cc2ccccc2)C(=O)N2CCC[C@@H]2C(=O)N[C@@H](Cc2ccccc2)CC(=O)N1C	5.2
CC(C)C[C@@H]1C(=O)N(C)[C@@H](CC(C)C)C(=O)N2CCC[C@@H]2C(=O)N(Cc2ccccc2)CC(=O)N[C@@H](Cc2ccccc2)C(=O)N2CCC[C@@H]2C(=O)N[C@@H](C)C(=O)N1C	4.6
CC(C)C[C@@H]1NC(=O)[C@@H](C)NC(=O)[C@H](Cc2ccccc2)NC(=O)[C@@H](CC(C)C)N(C)C(=O)[C@H]2CCCN2C(=O)[C@@H](CC(C)C)N(C)C1=O	0.54
CC(C)C[C@@H]1NC(=O)C[C@H](Cc2ccccc2)NC(=O)[C@H](Cc2ccccc2)NC(=O)[C@H](CC(C)C)NC(=O)[C@H]2CCCN2C(=O)[C@@H](CC(C)C)NC1=O	1.7
CC(C)C[C@H]1NC(=O)[C@@H]2CCCN2C(=O)CN(Cc2ccccc2)C(=O)[C@H](CC(C)C)N(C)C(=O)[C@@H](C)NC(=O)[C@@H]2CCCN2C(=O)[C@H](Cc2ccccc2)NC1=O	0.48
CCCN1CC(=O)N[C@@H](CC(C)C)C(=O)N(C)[C@H](CC(C)C)C(=O)N2CCC[C@H]2C(=O)N(C)[C@H](CC(C)C)C(=O)N[C@@H](Cc2ccccc2)C(=O)N2CCC[C@@H]2C1=O	5.6

The 3 highest values of PAMPA among the entries above:

structure (SMILES)	PAMPA (10^-6 cm/s)
CCCN1CC(=O)N[C@@H](CC(C)C)C(=O)N(Cc2ccccc2)CC(=O)N2CCC[C@H]2C(=O)N(C)[C@H](CC(C)C)C(=O)N[C@@H](Cc2ccccc2)C1=O	15
CCCN1CC(=O)N(C)[C@@H](CC(C)C)C(=O)N[C@@H](CC(C)C)C(=O)N2CCC[C@H]2C(=O)N[C@H](CC(C)C)C(=O)N[C@@H](Cc2ccccc2)C1=O	12
CC(C)C[C@@H]1C(=O)N(C)[C@H](CC(C)C)C(=O)N2CCC[C@H]2C(=O)N(C)[C@@H](CC(C)C)C(=O)N[C@@H](Cc2ccccc2)C(=O)N2CCC[C@H]2C(=O)N(C)[C@H](C)C(=O)N1C	10